Binding of CDR-mutated scFvs to a peptide of the spike HR2 region

The target is the same throughout: PDVDLGDISGINAS, from the HR2 region of SARS-CoV-2 spike.

Parent scFv Ab-14: VH joined to VL by a (GGGGS)3 linker. Changes lie in the light chain CDRs alone.
VH: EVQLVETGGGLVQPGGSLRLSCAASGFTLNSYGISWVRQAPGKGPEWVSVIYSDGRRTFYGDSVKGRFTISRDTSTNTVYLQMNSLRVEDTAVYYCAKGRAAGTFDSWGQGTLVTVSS
VL: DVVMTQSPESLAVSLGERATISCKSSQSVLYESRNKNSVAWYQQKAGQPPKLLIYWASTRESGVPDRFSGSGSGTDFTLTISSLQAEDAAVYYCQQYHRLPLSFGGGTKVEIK

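The starting antibody came from a phage panning campaign against this peptide. These sequences belong to a second round, designed from the earlier measurements on random variants of the parent. Several design methods are mixed in this list. AlphaSeq pools MATa yeast showing the antibodies with MATalpha yeast showing the peptide. Binding brings cells together so that they mate, and sequencing counts the barcode pairs among the diploids. Each replicate has its own calibration line, from reference interactions of the BCL2 family. There are six technical replicates.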

Variants are written as CDR1, CDR2 and CDR3 of the light chain (limits as in the source). Parent: KSSQSVLYESRNKNSVA, WASTRES, QQYHRLPLS.
The read-out is the apparent dissociation constant on a log10 scale (nM): the lower, the stronger.
A mean of the replicates is given; it leaves out those without a signal.
Where no diploid with the target was found in any replicate, the entry reads "nd": below detection, most likely a poor binder, though not proof of it.
Values of this round are not directly comparable with the first-round values of the same sequences.
In the paper, a design with two or fewer of six values counts as a poor binder.
Empty control strains, which show no peptide, gave a signal in 4% of pairings with all light chain designs; the median was 2.64 and 95% of these signals were weaker than 1.59. No background was subtracted. The control count says in how many pairings with the empty strains this scFv gave a signal.

CDR-L1,CDR-L2,CDR-L3,"log10 Kd (nM), mean",detected,control signals
KMSQSVLMEMRNKNSVA,DASLRES,QQYHRLPLS,-0.17,6 of 6,0 of 18
KLRVSTAYLSENKNSVA,ELSTRGS,QQYFRLPLS,0.41,6 of 6,0 of 18
QLGKNQVGDTLSQNAIA,HDALRVD,QQYFRLPLL,0.36,6 of 6,0 of 18
KSSWSWLYESRNKNSVA,GASSRES,QQYHRLPLS,1.02,4 of 6,0 of 18
HLHTVNYTEAIGTNSIA,DANLHVT,QQYFRLPIM,2.07,6 of 6,0 of 18
KGSQEKLYESRNKNSVA,DASTRES,QQYHRLPLS,-0.26,6 of 6,0 of 18
IMSDSQERDASRLRNIA,DDTTRAM,QQYARLPLS,0.67,6 of 6,1 of 18
MVYQAAMMGMSTRNSIA,NAQMRPD,QQYHRLPLI,1.35,6 of 6,0 of 18
KFSQSWGMESRNKNQVA,HASTRMS,QQYHRLPLS,0.73,6 of 6,0 of 18
MISDLTMYGSRNVQSVA,DLSTRGS,QQYDRLPLS,0.50,6 of 6,4 of 18
KFSQSVLYESRTKNSVA,NASTRES,QGYHRLPLS,0.35,6 of 6,3 of 18
KLGMTLNQMVEKKNNVA,DLVEREN,QQYHRLPLS,0.44,6 of 6,0 of 18
KFSPSYLYESRTKNSVA,NASTRES,QQYHRLPLS,-0.07,6 of 6,1 of 18
HMRMDCYQYDNYGKAVA,HANQRHN,QQYSRLPFS,1.19,6 of 6,0 of 18
KSSQSVLYESRNKNSVA,WASTREA,QQYHRLPLF,1.82,3 of 6,1 of 18
KVYWGVDYGDRNKNSVA,HASQRES,QQYHRLPLS,-0.19,6 of 6,0 of 18
SMYPFDVAIGEGTQNVA,HVSVRAL,QQYDRLPLV,1.74,6 of 6,2 of 18
TITQVTMVESYNKNSVA,QASTRLE,QDYHRLPLS,2.01,6 of 6,1 of 18
VMFGGLYWGNIEHQAIA,NVDMREK,QQYHRLPLQ,1.93,6 of 6,0 of 18
KSSQSVLYESTCKNSVA,NASTRES,QQYHELPLS,1.51,6 of 6,0 of 18
AMQMERLGQKQYQNNIA,NQDIRTA,QQYYMLPLV,0.10,6 of 6,0 of 18
MAYGGDMLETVTRNSVA,NAETRAD,QDYHRLPLS,2.22,6 of 6,1 of 18
KLSQGWLYESRNKNSVA,GASTRES,QQYHRLPLS,-0.10,6 of 6,3 of 18
KLSQSQCYEERNKNNVA,QASDRMS,QQYHRLPLS,0.11,6 of 6,2 of 18
KFSQEVMMGDRNKNSVA,KASQRLS,QQYHRLPLS,0.98,6 of 6,2 of 18
KISQMVKVGSTHSNSIA,EEQTRAK,QQYHRLPLS,0.93,6 of 6,1 of 18
MLSQMWGVGNKVSNSVA,QASTRFN,QQYDRLPLI,0.99,6 of 6,3 of 18
KISQMIRVGSTHSNSIA,EEATRAK,QQYHRLPLA,1.81,4 of 6,1 of 18
KMSQSVLYEGRNKNSVA,WASTRES,QQYVRLPLS,1.13,6 of 6,1 of 18
KFDFQMPELNYQDNSVA,GMTVSIE,QQYFRLPLT,nd,0 of 6,0 of 18
KMSQSVLYESQNSNSVA,HASQRMS,QQYHRLPLS,-0.09,6 of 6,1 of 18
IVSQLMMWGLHAKNSIA,EAQTRLN,QQYERLPLF,nd,0 of 6,0 of 18
KLMSVTGTEKVMGNNVA,EMETREK,QQYNRLPLA,0.09,6 of 6,0 of 18
KVSGSELEESRNKNSVA,WASVREE,QQYHRLPLS,0.45,6 of 6,1 of 18

Further variants, results first:

"log10 Kd (nM), mean",detected,control signals,CDR-L1,CDR-L2,CDR-L3
0.05,6 of 6,2 of 18,KLQQSQEYESRNKNSVA,HASTRCD,QQYHRLPLS
-0.23,6 of 6,2 of 18,KVQQSNLYESRNKNSVA,EASTRES,QQYHRLPLS
-0.14,6 of 6,0 of 18,KLQQSMEYESRNKNSVA,HASTRES,QQYHRLPLS
2.18,1 of 6,0 of 18,FITYQQDQTGLQRNAIA,QVNLKEY,QQYGRLPFA
4.23,1 of 6,1 of 18,KSSYSVLPESRNANSVA,WASTRES,QQYHRLPLS
0.30,6 of 6,0 of 18,KLSQSVLYESRDKNSVA,NASTRLS,QQYHRLPLS
2.30,2 of 6,0 of 18,KIGHGLTTETRNRNSVA,QTETRVS,QHYHRLPLS
0.65,6 of 6,0 of 18,KLGQVTENMQLNRNSVA,HMSTRED,QQYHRLPLS
1.62,1 of 6,0 of 18,EISILGEEVTQHYSNVA,EQHVTDM,QQYFRLPLS
0.72,6 of 6,3 of 18,KLSQVTNSEHKVKNSIA,EMVTREE,QQYDRLPLE
1.22,6 of 6,2 of 18,SVTSEMDQQQEQYNSVA,GVQKTAD,QQYGRLPLS
0.22,6 of 6,0 of 18,KVSQSKLGESRNMNSVA,NASTRED,QQYHRLPLS
nd,0 of 6,0 of 18,KSSQSVRYEERNKNSVA,WASTRES,QQYHMLPLQ
-0.52,6 of 6,0 of 18,KLSQSGLYESRNKNNVA,SASTRES,QQYHRLPLS
-0.09,6 of 6,1 of 18,KLQQSVLYESRNKNSVA,NASKRES,QQYHRLPLS
-0.19,6 of 6,0 of 18,LISQQELYEQRNKNSVA,DASQRLS,QQYHRLPLS
0.04,6 of 6,0 of 18,KLSKSVMYESRNKNSVA,SASTRYE,QQYHRLPLS
-0.43,6 of 6,0 of 18,KFSQSWLYESRNKNSVA,GASQRES,QQYHRLPLS
0.41,6 of 6,0 of 18,KVSGSQLYESRNSNAVA,NASTRMS,QQYHRLPLS
1.90,6 of 6,0 of 18,TISQSAEQESHNKNSVA,DLSVRGS,QQYDRLPLS
-0.52,6 of 6,1 of 18,KLSQSVPYESRNKNNVA,DASTRES,QQYHRLPLS
-0.65,6 of 6,0 of 18,KLVQHGDYESRNKNNVA,QASQREQ,QQYHRLPLS
-0.75,6 of 6,1 of 18,TISDLMHMESRNVNNVA,DLVKRES,QQYHRLPLS
0.72,6 of 6,1 of 18,RVQLNSGHIDMHWYSIA,SASIRAD,QQYERLPLA
1.59,4 of 6,0 of 18,KFSQSVLMESRNVNSVA,EASTRHS,QQYHRLPLS
-0.23,6 of 6,0 of 18,KFYQSVLYESRNKNSVA,GASTRES,QQYHRLPLS
0.04,6 of 6,4 of 18,KFSQSVLYESRTKNSVA,NAVTREQ,QQYHRLPLS
0.01,6 of 6,1 of 18,KVSQSFLYESRNKNSVA,GASTRES,QQYHRLPLS
0.72,6 of 6,0 of 18,HISNMQAYGYSAYNSVA,DNETKLN,QQYIRLPLT
-0.09,6 of 6,0 of 18,KLSQSDPYESRNKNSVA,EASTRES,QQYHRLPLS
1.82,6 of 6,0 of 18,KCSQSVLYESRNKNSVA,WASTRES,QQYHRLPLM
nd,0 of 6,0 of 18,QLDTQLQYMDANKNSVA,EMTEETT,QQYHRLPLE
-1.04,1 of 6,0 of 18,KSSQSVLYESSNSNSVA,WASTQES,QQYHRLPLS
2.98,1 of 6,1 of 18,KSSQSVLYESYNKNSVA,WASTRES,QMTHRLPLS

The closing 8 entries, repeated:

CDR-L1,CDR-L2,CDR-L3,"log10 Kd (nM), mean",detected,control signals
KFSQSVLYESRTKNSVA,NAVTREQ,QQYHRLPLS,0.04,6 of 6,4 of 18
KVSQSFLYESRNKNSVA,GASTRES,QQYHRLPLS,0.01,6 of 6,1 of 18
HISNMQAYGYSAYNSVA,DNETKLN,QQYIRLPLT,0.72,6 of 6,0 of 18
KLSQSDPYESRNKNSVA,EASTRES,QQYHRLPLS,-0.09,6 of 6,0 of 18
KCSQSVLYESRNKNSVA,WASTRES,QQYHRLPLM,1.82,6 of 6,0 of 18
QLDTQLQYMDANKNSVA,EMTEETT,QQYHRLPLE,nd,0 of 6,0 of 18
KSSQSVLYESSNSNSVA,WASTQES,QQYHRLPLS,-1.04,1 of 6,0 of 18
KSSQSVLYESYNKNSVA,WASTRES,QMTHRLPLS,2.98,1 of 6,1 of 18

Reference: Li et al. 2023, doi:10.1038/s41467-023-39022-2. File: FLAb, binding data.